## Apparent affinities of Ab-14 variants for a coronavirus HR2 peptide

From the AlphaSeq antibody data of Li et al. 2023 (doi:10.1038/s41467-023-39022-2), copy in the FLAb collection.

Binding partner: SARS-CoV-2 spike HR2 peptide, sequence PDVDLGDISGINAS.

Ab-14 is the parent antibody, in scFv form: VH, then a 15-residue (Gly4Ser)3 linker, then VL. The heavy chain is unchanged in all variants.
VH: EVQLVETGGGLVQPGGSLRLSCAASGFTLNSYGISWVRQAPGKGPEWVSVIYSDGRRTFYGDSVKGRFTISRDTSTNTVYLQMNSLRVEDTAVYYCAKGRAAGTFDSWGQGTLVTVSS
VL: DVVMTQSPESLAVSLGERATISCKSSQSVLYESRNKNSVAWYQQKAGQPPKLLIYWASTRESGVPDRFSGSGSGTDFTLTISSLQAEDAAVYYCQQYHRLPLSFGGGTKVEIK

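The parent was found by panning a naive human phage display library on the peptide. The variants were designed computationally from a first round of random CDR variants and then made and measured. Group labels follow the data file (Ctrl: baseline library sampled from a position-specific scoring matrix, with some repeated check sequences; En: ensemble of fine-tuned language models; GP: Gaussian process model; HC: hill climbing; Gen: genetic algorithm; Gibbs: Gibbs sampling; a sequence that several methods proposed may carry one label only). The scFvs were displayed on barcoded MATa yeast, the peptide on MATalpha yeast. Mating (16 h, 30 °C) was followed by selection of diploids and sequencing of their barcodes. The ratio of observed to expected reads was calibrated, replicate by replicate, on BCL2-family standards whose Kd was known from biolayer interferometry. Mating was done six times.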

Each variant is given by its three light chain CDRs, as the data file delimits them; those of the parent are KSSQSVLYESRNKNSVA, WASTRES, QQYHRLPLS. Values are log10 of the apparent Kd in nM; lower means stronger binding. The mean shown is taken over the replicates in which the pair was detected. "nd" means that the variant was in the library but no mating with the target was seen in any replicate; the authors take this as a sign of poor binding, and no number exists. The parent sequence was in this pool as ten entries: three were never detected, three once, and four in most replicates, with averages from 0.34 to 2.37. The authors averaged sequences with at least three values out of six and counted those with two or fewer as poor binders. Values of this round are not directly comparable with the first-round values of the same sequences. Background: pairings of all light chain designs with three empty control strains gave a value in 4% of cases (median 2.64, 5th percentile 1.59). Values in that range, when seen in few replicates, are hard to tell from nonspecific mating.

CDR-L1,CDR-L2,CDR-L3,group,mean log10 Kd (nM),replicates with signal
HVAHASLESNATMNSVA,NEACLAI,QQYHRLPLA,En_Gibbs,1.45,3/6
KSDKSMLYESGNKNSVA,GASTRHS,QQYHRLPLS,Ctrl,0.37,6/6
KLSQWYWYESRNKNSVA,NASTREV,QQYWRLPLS,GP_Gibbs,0.60,6/6
KLTHLSFVLDRQKASVA,DSERKAE,QQYNRLPLT,En_Gibbs,0.58,6/6
KLSQSNGYESRLANNVA,NASTRLE,QQYHRLPLS,GP_Gibbs,0.41,6/6
KWSISVLQGDRNKNSVA,NASCREQ,QQYHRLPLS,GP_Gibbs,0.90,6/6
KIGHTLNTLYEKANNVA,DLVTREN,QQYYRLPLS,En_Gen,0.74,6/6
IIEQGEYEQEQHKNAIA,SGHERMR,QQYYKLPLV,En_Gibbs,0.68,6/6
KSQQSVLYESRDKNSVA,HASTRED,QQYHRLPLS,GP_HC,0.73,6/6
MLSQMTGLGQKVRNSVA,QASMRIN,QQYHRLPLM,En_Gen,nd,0/6
SNSTSVLYESRNKNSVA,WASTRES,QQTHRLPLS,Ctrl,nd,0/6
KLDQSHLYESRNKNSVA,NANTREE,QQYHRLPLS,GP_Gibbs,-0.16,6/6
KLQQSVLYGSRNKNSVA,QASTRMV,QAYHRLPLS,GP_Gibbs,0.82,5/6
NLKEMEGTNQTKHGNIA,SVDQRMS,QQYQRLPLI,En_Gibbs,0.61,6/6
KSLQSWLYESRNKNSVA,HASLREQ,QQYHRLPLS,GP_HC,0.51,6/6
ILYESVGTLSRNTNSVA,DNSTREK,QQYDRLPLS,En_HC,1.82,6/6
KLDQSTLYQSRNKQSVA,NASQRES,QQYHRLPLS,GP_Gibbs,-0.20,6/6
KLYDMSALTMSNIRNVA,DNSTREA,QQYHRLPLS,En_Gen,0.10,6/6
KMQTLTYTANIGENSVA,DANVHVD,QQYFRLPLS,En_Gibbs,0.64,6/6
MMSQVHGLGQRHRNNVA,QTSTRED,QQYDRLPLI,En_Gen,1.22,6/6
HLSWAVLYESRNKNSVA,NASTRES,QQYHRLPLS,GP_HC,0.25,6/6
KLYQSMGYLSRAKNSIA,DMSRREN,QQYHRLPLS,En_HC,0.25,6/6
KSSQSVLYESANKNSVA,WASTREV,QQYHRLPLS,Ctrl,nd,0/6
KSSISYLYESRNKNSVA,EASTREV,QQYHRLPLM,GP_HC,0.66,6/6
HMSAITLTGMRARNSVA,QMTTREN,QQYDRLPLS,En_Gen,0.71,6/6
KSSQSVLYESSNKNSVA,AASTRES,QQYHRLPLS,Ctrl,0.41,6/6
KSSPSELYEDRNFNSVA,HASQRES,QQYHRLPLS,GP_Gibbs,0.04,6/6
TISQSWNMTSKGKNSVA,QAEMRES,QQYDRLPLS,En_HC,1.09,6/6
MISQLYNMGQFAINSVA,QASLRCN,QQYDRLPLM,En_Gen,2.56,3/6

The remaining entries, values ahead:

mean log10 Kd (nM),replicates with signal,CDR-L1,CDR-L2,CDR-L3,group
0.63,6/6,KYSFSSLYESRNKNSVA,EASCREE,QQYHRLPLS,GP_Gibbs
0.33,6/6,KMQGSVMMLSRNVNSVA,QASTREQ,QQYHRLPLS,GP_Gibbs
1.04,6/6,TISQLMNMGQFAINSVA,QATIRNA,QQYDRLPLI,En_Gen
1.05,6/6,KLSQSELYESRNKNSVA,NASQRCS,QQYHRLPLS,GP_Gen
-0.07,6/6,KISQLVNFEGKQKNSVA,QMSTRES,QQYDRLPLS,En_HC
0.75,5/6,KFGQMVLTGAYVSNSVA,QMSTRVN,QQYHRLPLM,En_HC
0.42,6/6,HLSQSVDLESMHKNSIA,DLMTRES,QQYHRLPLS,En_HC
0.31,6/6,LLSQSELLESRNWNAVA,HASTRMD,QQYHRLPLS,GP_Gibbs
0.26,6/6,KSDQAVLYESRNKNSVA,DASTRES,QQYHRLPLS,Ctrl
0.06,6/6,KLSQSVWYESRNKNSVA,NASTRES,QQYHRLPLS,GP_Gen
0.80,6/6,HLGIQTQGEMVSTQPVA,QESTRAK,QQYFRLPLI,En_Gibbs
0.73,6/6,KISQMVRVGQTHSNSIA,EEATRAK,QQYHRLPLA,En_Gen
-0.07,6/6,KLSGSFLYESRNKNSVA,DASTRES,QQYHRLPLS,GP_Gen
-0.11,6/6,KLSQSMLYESRNKNAVA,EASTRES,QQYHRLPLS,GP_Gen
1.11,6/6,KSSQSVLGESRNKNSVA,QASTRES,QQYHHVPLS,Ctrl
1.60,3/6,QFHSHMAGDGNIQHSIA,EASCAEP,QSYFRLPLS,En_Gibbs
0.07,6/6,KFSQSVGYESRNKNSVA,NAQTRLE,QQYHRLPLM,GP_Gibbs
-0.55,6/6,RVTIISDPYGRNRNNIA,QTSERAH,QQYQMLPLA,En_Gibbs
-0.37,6/6,KSSQSWLYESRNKNSVA,EASTREV,QQYHRLPLS,GP_HC
0.26,6/6,HITSNMFGTIGVTSNVA,ETNTLMV,QQYSKLPLM,En_Gibbs
1.99,6/6,NISIEDVSEHNFANNVA,STSCRCS,QQYFHLPLD,En_Gibbs
0.45,6/6,NVGQLMDGEQRNKNSVA,HQSTRED,QHYHRLPLS,En_HC
-0.33,6/6,KLEWQQLYWSRNSNSVA,NASTREE,QQYHRLPLS,GP_Gibbs
0.26,6/6,MISDLTMYGLRNVNSVA,DLSMRGS,QQYDRLPLS,En_HC
2.69,5/6,KLRMSTGYQSRNKDSIA,DNSTRGR,QQYHRLPLS,En_HC
1.85,6/6,MISQLYNMGQFAINSVA,QASERNT,QQYDRLPLT,En_Gen
0.95,6/6,KFSQLYLYESRNKNSVA,NASCRES,QQYWRLPLS,GP_Gibbs
0.62,1/6,HFSQETMEFMGQNKAIA,EVTTTML,QQYARLPFI,En_Gibbs
0.36,6/6,KLSQSVLYESRNKNSVA,WASSRES,QQYHRLPLS,Ctrl

Top 5 of the variants detected in all replicates, tightest first:

CDR-L1	CDR-L2	CDR-L3	group	mean log10 Kd (nM)	replicates with signal
RVTIISDPYGRNRNNIA	QTSERAH	QQYQMLPLA	En_Gibbs	-0.55	6/6
KSSQSWLYESRNKNSVA	EASTREV	QQYHRLPLS	GP_HC	-0.37	6/6
KLEWQQLYWSRNSNSVA	NASTREE	QQYHRLPLS	GP_Gibbs	-0.33	6/6
KLDQSTLYQSRNKQSVA	NASQRES	QQYHRLPLS	GP_Gibbs	-0.20	6/6
KLDQSHLYESRNKNSVA	NANTREE	QQYHRLPLS	GP_Gibbs	-0.16	6/6